These results are taken from PubChem BioAssay AID602233 (National Center for Advancing Translational Sciences (NCATS), 2012).

Structures are written as SMILES. This is a selection; strong and weak results do not stand in their true shares. Activity calls are given as the source filed them. Calls come from the whole dose curve; as a rule, active = well fitted inhibition curve with a large enough effect; inconclusive = small, poorly fitted or top-dose-only effect; inactive = no such curve, though single readings can be large or run the other way.
% is set by controls: 0 for no effect and ±100 for the full control effect.

In the assay the target is Phosphoglycerate kinase, glycosomal (Trypanosoma brucei brucei) (UniProt P07378). The experiment in a line: qHTS Assay to Find Inhibitors of Phosphoglycerate Kinase. Note: nearly all actives have a fitted effect of over 60% in size. As to conditions: PGK/GAPDH coupled, Kinase-Glo luminescence, 60 min; activity change, negative = inhibition: at 57.5 µM (top of the series). An excerpt: Several species of the Trypanosomatidae family of parasitic protozoans cause a spectrum of diseases throughout the tropical and subtropical world. Sleeping sickness, caused by two subspecies of Trypanosoma brucei, is endemic to areas of sub-Saharan Africa, while Chagas disease, a manifestation of Trypanosoma cruzi infection, is prevalent throughout Central and South America. In addition, many species of Leishmania are responsible for a range of cutaneous and visceral diseases, causing ulcers, destructive lesions and kalaazar, a lethal infection of the viscera. Collectively, these organisms infect 30 million people worldwide (~500 million live in endemic areas), and account for ~130,000 deaths annually. Given their debilitating and prevalent nature, trypanosomatid parasites impose a heavy medical, economic and social burden on entire populations, primarily in the developing world. […]
3ul of substrate/PGK buffer (columns 1,2,5-48) are dispensed into Greiner white solid bottom 1536-well assay plates; columns 3-4 receive only TEA buffer as 0x PGK controls. […] Kinase-Glo Plus reagent is added (2ul) and plates incubated for 10 minutes, before being transferred to a ViewLux high-throughput CCD imager (PerkinElmer) wherein single end-point measurements of luminescence are acquired using a clear filter. […]
For the compound `CCC(=O)N(c1ccccc1)C1(COC)CCN(CCn2nnn(CC)c2=O)CC1`, the activity change, negative = inhibition was inactive: 4.18%.

Consider `CCC(=O)N(c1ccccc1)C1(COC)CCN(CCc2cccs2)CC1`, for which the activity change, negative = inhibition result is “inactive”.
